Test results taken from PubChem BioAssay (Tox21).
Values joined by “and” are separate entries in the source; they are usually repeats but may differ in a detail not shown here. Equal entries are not always repeated. The list shows a part of the results, in another mix than the full data. Inconclusive results are not listed. Active and inactive are the calls of the source. Unless noted, calls come from the whole dose curve; as a rule, active = well fitted curve in the direction sought with a large enough effect in the repeat runs; inconclusive = weak or mixed curves; inactive = no such curve, though single readings can be large; an effect the other way counts as inactive or inconclusive.

The chains behind the UniProt entries cited, without tags or fusion partners.
UniProt P04150, whole entry: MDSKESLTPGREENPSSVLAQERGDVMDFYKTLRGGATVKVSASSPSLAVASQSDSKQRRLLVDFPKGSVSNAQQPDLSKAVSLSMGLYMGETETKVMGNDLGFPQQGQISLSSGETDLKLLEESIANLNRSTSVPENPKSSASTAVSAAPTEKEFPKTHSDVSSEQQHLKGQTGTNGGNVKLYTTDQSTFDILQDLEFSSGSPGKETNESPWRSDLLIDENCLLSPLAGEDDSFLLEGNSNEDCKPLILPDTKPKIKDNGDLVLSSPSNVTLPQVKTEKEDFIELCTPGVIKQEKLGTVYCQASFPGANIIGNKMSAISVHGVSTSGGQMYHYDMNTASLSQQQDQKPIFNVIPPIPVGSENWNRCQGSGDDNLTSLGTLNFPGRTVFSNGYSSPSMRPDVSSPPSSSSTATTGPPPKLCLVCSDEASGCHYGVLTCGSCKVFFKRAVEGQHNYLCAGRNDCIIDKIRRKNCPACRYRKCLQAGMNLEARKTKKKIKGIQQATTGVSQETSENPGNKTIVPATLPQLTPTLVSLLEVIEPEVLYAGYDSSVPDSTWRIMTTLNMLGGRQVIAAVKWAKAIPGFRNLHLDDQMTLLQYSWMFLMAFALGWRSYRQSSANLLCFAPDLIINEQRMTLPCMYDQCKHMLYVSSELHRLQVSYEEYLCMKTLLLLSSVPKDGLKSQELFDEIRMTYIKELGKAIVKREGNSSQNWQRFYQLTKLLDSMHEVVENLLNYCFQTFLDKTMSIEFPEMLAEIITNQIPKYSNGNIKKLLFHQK

How the values were obtained:
[1] = qHTS assay for small molecule agonists of the p53 signaling pathway (AID 651631; calls by dose curve; note: nearly all actives have a fitted effect of over 15% in size); settings: HCT-116 p53RE-bla reporter, beta-lactamase FRET ratio, 16 h
Outline: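 We treat p53RE-bla HCT-116 cells with compounds for 16 h at 37 °C, add LiveBLAzer B/G FRET substrate for 2 h at room temperature, and measure fluorescence intensity.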

[2] = qHTS assay for small molecules that induce genotoxicity in human embryonic kidney cells expressing luciferase-tagged ATAD5 (AID 651632); settings: HEK293T ATAD5-luciferase induction, 16 h; note: nearly all actives have a fitted effect of over 15% in size
Outline: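 Luminescent reporter readout, HEK293T ATAD5-luc line: 16 hr drug exposure (37C, 5% CO2) followed by Amplite, 30 min RT.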

[3] = qHTS assay for small molecule agonists of the p53 signaling pathway - cell viability (AID 651633; calls by dose curve; note: nearly all actives have a fitted effect of over 30% in size); settings: p53RE-bla HCT-116 viability, ATP luminescence, 16 h
Outline: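 Viability counter-read: CellTiter-Glo luminescence (30 min, room temperature) in the same p53RE-bla plates. These plates had been exposed to compounds for 16 h at 37 C.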

[4] = qHTS assay for small molecules that induce genotoxicity in human embryonic kidney cells expressing luciferase-tagged ATAD5 - cell viability (AID 651634; calls by dose curve; note: nearly all actives have a fitted effect of over 25% in size); settings: HEK293T ATAD5-luc cells viability, CellTiter-Fluor, 15.5 h
Outline: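 Viability read: CellTiter-Fluor fluorescence, 30 min at 37C. Cells: HEK293T, luciferase-tagged ATAD5. Exposure: 15.5 hr, 37C, 5% CO2, compound or DMSO vehicle.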

[5] = qHTS assay for small molecule disruptors of the mitochondrial membrane potential - cell viability (AID 720634; calls by dose curve;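 note: human HepG2 liver cancer cells; nearly all actives have a fitted effect of over 20% in size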); settings: HepG2 viability, ATP luminescence (CellTiter-Glo), 1 h
Outline: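 HepG2, 1 hr compound, 37 C. ATP luminescence via CellTiter-Glo, 30 min RT, same well as m-MPI.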

[6] = qHTS assay for small molecule disruptors of the mitochondrial membrane potential (AID 720635); settings: HepG2 mitochondrial membrane potential, Mito-MPS dye ratio; series mostly up to 83.2 µM
Outline: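 Mitochondrial membrane potential tracked with Mito-MPS dye, red aggregates (ex 540/em 590 nm) against green monomers (ex 490/em 535 nm). Compound treatment 1 hr at 37C, dye 30 min in HepG2.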

[7] = qHTS assay to test for compound auto fluorescence at 590 nm (red) in HepG2 cells (AID 720674); settings: HepG2 autofluorescence, red 540/590 nm, 1 h; at 91.3 µM (top of the series)
Outline: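 We screened compounds on adherent HepG2 cells, incubating them for an hour at 37 C in 5% CO2 before reading emission at 590 nm under 540 nm excitation; values reflect equivalence to Rose Bengal sodium fluorescence.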

[8] = qHTS assay to test for compound auto fluorescence at 535 nm (green) in HepG2 cells (AID 720675); settings: green autofluorescence 485/535 nm, 1 h, at 91.3 µM (top of the series)
[9] = qHTS assay to test for compound auto fluorescence at 460 nm (blue) in HEK293 cells (AID 720678); settings: blue autofluorescence 405/460 nm, at 91.3 µM (top of the series)
Outline: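 Triamterene serves as the blue fluorophore standard. Compound signal at 405/460 nm is read in HEK293 wells (2,000 cells, 10% dialyzed FBS) after overnight treatment at 37C.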

[10] = qHTS assay to test for compound auto fluorescence at 590 nm (red) in HEK293 cells (AID 720679); settings: red autofluorescence 540/590 nm, at 91.3 µM (top of the series)
Outline: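 We plated HEK293 cells in 10% dialyzed FBS medium, let them adhere for 4-5 hr, then added 23 nL compound. Overnight at 37C and 5% CO2 preceded fluorescence measurement at 540/590nm.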

[11] = qHTS assay to test for compound auto fluorescence at 535 nm (green) in HEK293 cells (AID 720680); settings: green autofluorescence 485/535 nm, at 91.3 µM (top of the series)
Description: U.S. Tox21 Program National Center for Advancing Translational Sciences [NCATS] NIH Chemical Genomics Center [NCGC] U.S. Environmental Protection Agency [EPA] National Institutes of Environmental Health Sciences [NIEHS] National Toxicology Program [NTP] U.S. Food and Drug Administration [FDA] Tox21 Assay Overview: Compound auto fluorescence often interferes with screening of the compound library against various biological targets and signaling pathways. Some of these compounds may have fluorophoric properties. Such properties may interfere with the assay outputs resulting in false positives and/or negatives. To decrease such complications and ensure the compound activities are relevant in terms of biological response, the Tox21 10K compound library was screened for auto fluorescence. From the fluorophores used as reporter signals in our screening assays, the auto fluorescence equivalencies of compounds against three fluorophores have been evaluated: Triamterene, Fluorescein and Rose Bengal sodium for blue, green and red fluorescence, respectively. The fluorescence intensities were measured using Excitation/Emission wavelengths at 405/460nm, 485/535nm and 540/590nm for blue, green and red labels, respectively. This assay includes the green fluorescence data.
Tox21 Assay Protocol Summary: 2,000 HEK293 cells in 5 uL of culture medium containing 10% dialyzed FBS per well were dispensed into black wall/clear bottom 1536-well plates using a Multidrop Combi Dispenser (Thermo Scientific). The assay plates were incubated for 4-5 hr at 37C to allow cell attachment to the well bottom, followed by the transfer of 23 nL compound or DMSO vehicle by a pintool work station (Kalypsys, San Diego, CA). After the assay plates were incubated overnight at 37C and 5% CO2, fluorescence intensities in the assay plates were measured by an Envision (PerkinElmer, Shelton, CT) plate reader using three labels for measuring blue, green and red fluorescence at […] 460, 535 and 590nm respectively.

[12] = qHTS assay to test for compound auto fluorescence at 460 nm (blue) in HEK293 cell free culture (AID 720681); settings: cell-free medium, autofluorescence 405/460 nm (blue); at 91.3 µM (top of the series)
Outline: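 Blue fluorescence (Ex 405/Em 460 nm, triamterene-equivalent) was read immediately after pin transfer of compound or DMSO into medium (DMEM, 10% FBS) without cells.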

[13] = qHTS assay to test for compound auto fluorescence at 535 nm (green) in HEK293 cell free culture (AID 720682); settings: cell-free medium, green autofluorescence 485/535 nm; at 91.3 µM (top of the series); active compounds read high
Outline: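 Green-channel intensity (Ex/Em 485/535 nm) was recorded from compound-treated wells containing only DMEM with 10% FBS. Fluorescein provided the equivalency standard.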

[14] = qHTS assay to test for compound auto fluorescence at 590 nm (red) in HEK293 cell free culture (AID 720683); settings: cell-free medium autofluorescence, Ex540/Em590 red; at 91.3 µM (top of the series)
Outline: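 Red-channel autofluorescence of compounds in culture medium (DMEM, 10% FBS), no cells, measured at 540/590 nm. Rose Bengal sodium is the reference fluorophore for equivalence.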

[15] = qHTS assay to test for compound auto fluorescence at 590 nm (red) in HepG2 cell free culture (AID 720684); settings: cell-free medium autofluorescence, red 540/590 nm; at 91.3 µM (top of the series)
Outline: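 Steps: dispense MEM/10% FBS medium, no cells; pin compound or DMSO vehicle; read red channel, Ex/Em 540/590 nm. Output given as Rose Bengal sodium equivalents.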

[16] = qHTS assay to test for compound auto fluorescence at 460 nm (blue) in HepG2 cell free culture (AID 720685); settings: Cell-free culture medium, blue autofluorescence 405/460 nm; at 91.3 µM (top of the series)
Outline: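 Compound (23 nL) or DMSO pinned into cell-free MEM with 10% FBS; blue fluorescence read at 405/460 nm excitation/emission, expressed as auto-fluorescence equivalency to triamterene.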

[17] = qHTS assay to test for compound auto fluorescence at 535 nm (green) in HepG2 cell free culture (AID 720686); settings: Cell-free medium, green autofluorescence 485/535 nm; at 91.3 µM (top of the series)
[18] = qHTS assay to test for compound auto fluorescence at 460 nm (blue) in HepG2 cells (AID 720687); settings: autofluorescence 405/460 nm, 1 h, at 91.3 µM (top of the series)
Outline: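 Blue-channel autofluorescence (Ex/Em 405/460 nm, triamterene-equivalent) was measured after 1 hr compound exposure at 37 C, 5% CO2. Cells were HepG2, plated overnight at 37 C in MEM plus 10% FBS.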

[19] = target: Glucocorticoid receptor (Homo sapiens) (UniProt P04150); test: qHTS assay to identify small molecule agonists of the glucocorticoid receptor (GR) signaling pathway (AID 720691; active = well fitted activation curve with a large enough effect in the signal ratio in the repeat runs, not every such curve was filed as active; the % refers to the signal ratio); settings: GR-bla HeLa, beta-lactamase reporter ratio, 18 h
[20] = target: Glucocorticoid receptor (Homo sapiens) (UniProt P04150); test: qHTS assay to identify small molecule antagonists of the glucocorticoid receptor (GR) signaling pathway (AID 720692; active = well fitted inhibition curve with a large enough effect in the signal ratio in the repeat runs, not every such curve was filed as active; the % refers to the signal ratio); settings: GR-bla HeLa, beta-lactamase FRET ratio, dexamethasone-stimulated, 18 h; series mostly up to 58.5 µM
% is set by controls: 0 for no effect and ±100 for the full control effect.

ClCCOP(OCCCl)OCCCl
inactive: activation ([1]; at 73.3 µM (top of the series)) -3.89% | activation ([1]; at 95.1 µM (top of the series)) -1.61% | activation ([2]; at 83.3 µM (top of the series)) 2.24% | activation ([2]; at 95.3 µM (top of the series)) 1.15% | activity change, negative = cytotoxicity ([3]; at 83.3 µM (top of the series)) 12.8% | activity change, negative = cytotoxicity ([3]; at 95.3 µM (top of the series)) 4.13% | activity, negative = cytotoxicity ([4]; at 83.3 µM (top of the series)) 10% | activity, negative = cytotoxicity ([4]; at 95.3 µM (top of the series)) -5.75% | activity change, negative = cytotoxicity ([5]; at 83.2 µM (top of the series)) -1.69% | activity change, negative = cytotoxicity ([5]; at 95.3 µM (top of the series)) 6.16% | Potency [6] | fluorescence, relative to Rose Bengal [7] 0.0831% and 0.133% | fluorescence, % of fluorescein control [8] -0.0332% and 0.0097% | fluorescence, % of triamterene [9] -0.0249% and -0.0305% | fluorescence, % of fluorescent control [10] 0.288% and -0.0931% | fluorescence, % of fluorescein [11] -0.0704% and 0.0087% | fluorescence, % of fluorescent control [12] -0.352% and -0.0885% | activity change [13] -0.0874% and 0.0022% | fluorescence, % of fluorescent control [14] -0.0875% and -0.0628% | fluorescence, % of Rose Bengal [15] 0.261% and -0.115% | fluorescence, % of fluorescent control [16] 0.0106% and -0.0488% | fluorescence, % of fluorescein control [17] -0.126% and 0.0807% | fluorescence, % of fluorescent control [18] -0.238% and -0.0037% | activation ([19]; at 62.4 µM (top of the series)) -1.98% | activation ([19]; at 79.2 µM (top of the series)) 2.43% | Potency [20]

CCOP(=O)(Cl)Cl
inactive: activation ([1]; at 73.3 µM (top of the series)) -1.88% and -0.706% | activation ([2]; at 83.3 µM (top of the series)) -2.23% and 2.65% | activity change, negative = cytotoxicity ([3]; at 83.3 µM (top of the series)) -2.85% and 13.8% | activity, negative = cytotoxicity ([4]; at 83.3 µM (top of the series)) -6.03% and 21.5% | activity change, negative = cytotoxicity ([5]; at 83.2 µM (top of the series)) 6.15% and 5.07% | Potency [6] | fluorescence, relative to Rose Bengal [7] -0.0426% and 0.0669% | fluorescence, % of fluorescein control [8] 0.0235% and -0.0109% | fluorescence, % of triamterene [9] 0.0452% and 0.0393% | fluorescence, % of fluorescent control [10] 0.578% and 0.0927% | fluorescence, % of fluorescein [11] 0.0542% and -0.0516% | fluorescence, % of fluorescent control [12] 0.057% and -0.124% | activity change [13] 0.0784% and -0.0016% | fluorescence, % of fluorescent control [14] 0.252% and 0.15% | fluorescence, % of Rose Bengal [15] 0.0607% and 0.039% | fluorescence, % of fluorescent control [16] -0.168% and -0.0933% | fluorescence, % of fluorescein control [17] 0.0038% and 0.0324% | fluorescence, % of fluorescent control [18] 0.0124% and -0.0551%
